Experimental data taken from article PMC6033295, “The Effects of the Honey-Roasting Process on the Pharmacokinetics of the Six Active Compounds of Licorice” (Evidence-based Complementary and Alternative Medicine : eCAM, 2018).

Assay: Stability of six compounds in rat plasma (QC samples)
Format: in vitro ADME
Settings: At -80°C for 1 month, rat plasma QC sample, n = 6
Experimental: The stabilities of the six compounds in rat plasma were evaluated by analyzing QC samples under different conditions. […] Long-term stability was tested by storing QC samples at -80°C for one month. RSD was evaluated by analyzing six replicate samples. The stability of the six compounds was evaluated under various conditions. QC samples stored in a freezer at -80°C remained stable for one month. […] The stability data were within the acceptance range of 85%-115% (Table 3).

| SMILES | Stability, Average (high concentration level) | Stability, Average (medium concentration level) |
| --- | --- | --- |
| CC1(C)[C@@H](O)CC[C@]2(C)[C@H]3C(=O)C=C4[C@@H]5C[C@@](C)(C(=O)O)CC[C@]5(C)CC[C@@]4(C)[C@]3(C)CC[C@@H]12 [GA, glycyrrhetinic acid] | 97.3% |  |
| O=C1C[C@@H](c2ccc(O)cc2)Oc2cc(O)ccc21 [LG, liquiritigenin] |  | 97.3% |
